According to US20230079819A1, “COMPOUNDS AND USES THEREOF” (Foghorn Therapeutics Inc., priority 2019, published 2023):

Assays:
[1] = test system: uveal melanoma cell line 92-1; assay: Inhibition of cell proliferation of uveal melanoma cell line 92-1; type: cell-based
[2] = test system: uveal melanoma and non-small cell lung cancer cell lines
[3] = test system: uveal melanoma cell line MP41; assay: Inhibition of cell proliferation of uveal melanoma cell line MP41; type: cell-based
[4] = test system: several cancer cell lines; assay: Inhibition of cell proliferation of several cancer cell lines; type: cell-based
[5] = test system: parental and PKC-inhibitor refractory uveal melanoma cell lines; assay: Inhibition of cell proliferation of parental and PKC-inhibitor refractory uveal melanoma cell lines; type: cell-based

Measured: inhibition of cell proliferation

CSCC[C@H](NC(=O)c1ccn(S(C)(=O)=O)c1)C(=O)Nc1nc(-c2cccc(-c3ccncc3)c2)cs1 [Compound 67, (S)-1-(methylsulfonyl)-N-(4-(methylthio)-1-oxo-1-((4-(3-(pyridin-4-yl)phenyl)thiazol-2-yl)amino)butan-2-yl)-1H-pyrrole-3-carboxamide]
inhibition of cell proliferation: all assays above
